Molecular target: Recombinant human DPP1 enzyme (Homo sapiens (Human), UniProt P53634)
Test: In vitro DPP1 enzyme activity assay
Type: biochemical
Conditions: recombinant human DPP1 activated with cathepsin L, substrate Gly-Arg-AMC, fluorescence; read-out: DPP1 inhibitory activity IC50

Sequences of proteins named here, by UniProt entry; tags and fusion partners are left off. Residues count along the entry.
UniProt P53634, 395-463: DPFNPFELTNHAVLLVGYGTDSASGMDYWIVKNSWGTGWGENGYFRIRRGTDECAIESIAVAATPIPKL
UniProt P53634, 25-134: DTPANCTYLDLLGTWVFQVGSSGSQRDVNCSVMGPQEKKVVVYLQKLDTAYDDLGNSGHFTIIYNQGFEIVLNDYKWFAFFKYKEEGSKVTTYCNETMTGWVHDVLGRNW
UniProt P53634, 231-394: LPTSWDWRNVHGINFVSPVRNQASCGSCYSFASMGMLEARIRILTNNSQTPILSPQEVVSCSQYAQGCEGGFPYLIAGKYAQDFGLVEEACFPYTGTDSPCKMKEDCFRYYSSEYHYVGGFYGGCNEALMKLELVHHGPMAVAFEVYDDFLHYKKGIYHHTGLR

In the case of `[2H]C([2H])([2H])n1c(=O)oc2ccc(-c3ccc(C[C@@H](C#N)NC(=O)[C@@H]4CNCCCO4)c(F)c3)cc21` [Compound 23, (S)—N—((S)-1-cyano-2-(2-fluoro-4-(3-(methyl-d3)-2-oxo-2,3-dihydrobenzo[d]oxazol-5-yl)phenyl)ethyl)-1,4-oxazepane-2-carboxamide], the IC50 is reported as 0.5 nM.
